This is an account of results in ChEMBL document CHEMBL1130012 (J Med Chem, 1997).

Protein sequences, listed by entry. Tags and fused reporters are not part of them.
UniProt P10980, whole entry: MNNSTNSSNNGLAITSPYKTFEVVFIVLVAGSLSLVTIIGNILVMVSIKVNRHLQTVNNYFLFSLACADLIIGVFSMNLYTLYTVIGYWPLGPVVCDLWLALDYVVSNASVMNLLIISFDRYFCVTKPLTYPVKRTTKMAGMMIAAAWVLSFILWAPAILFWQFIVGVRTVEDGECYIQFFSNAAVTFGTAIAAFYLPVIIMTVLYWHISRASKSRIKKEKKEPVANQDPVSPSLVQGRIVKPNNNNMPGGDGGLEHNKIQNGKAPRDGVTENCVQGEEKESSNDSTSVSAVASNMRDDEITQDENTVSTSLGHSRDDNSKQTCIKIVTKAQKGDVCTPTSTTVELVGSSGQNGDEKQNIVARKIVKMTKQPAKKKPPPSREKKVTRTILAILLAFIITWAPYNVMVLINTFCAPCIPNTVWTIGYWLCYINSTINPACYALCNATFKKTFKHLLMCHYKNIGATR

The target of this test is Muscarinic acetylcholine receptor M2 (Rattus norvegicus, UniProt P10980). The experiment in a line: Binding affinity towards rat Muscarinic acetylcholine receptor M2 was determined.

With `CN1[C@@H]2C[C@@H](OC(=O)[C@H](CO)c3ccccc3)C[C@H]1[C@@H]1O[C@@H]12` [SCOPOLAMINE], the Ki was 4.57 nM.
